# Binding of CDR-mutated scFvs to a peptide of the spike HR2 region

From the AlphaSeq antibody data of Li et al. 2023 (doi:10.1038/s41467-023-39022-2), copy in the FLAb collection.

The target is the same throughout: PDVDLGDISGINAS, from the HR2 region of SARS-CoV-2 spike.

Parent: Ab-14, a human scFv built as VH, three GGGGS repeats, VL. Only the CDRs of the light chain vary.
VH: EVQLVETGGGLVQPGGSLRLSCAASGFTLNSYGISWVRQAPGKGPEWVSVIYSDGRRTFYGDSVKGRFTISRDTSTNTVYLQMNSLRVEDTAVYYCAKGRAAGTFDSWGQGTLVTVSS
VL: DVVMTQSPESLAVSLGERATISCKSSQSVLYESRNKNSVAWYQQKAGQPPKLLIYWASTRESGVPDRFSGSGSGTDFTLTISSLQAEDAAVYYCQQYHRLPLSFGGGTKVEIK

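Phage display of a naive human antibody library on the peptide gave the parent. This is the validation round: designs drawn from the data on random variants, tested in the same kind of assay. Group labels follow the data file (Rand: our label for a block that the file lists under HC and that is probably the random mutants of the ten best first-round binders; En: ensemble of fine-tuned language models; GP: Gaussian process model; HC: hill climbing; Gen: genetic algorithm; Gibbs: Gibbs sampling; a sequence that several methods proposed may carry one label only). In AlphaSeq, yeast of one mating type display the scFv and yeast of the other type display the target. Pairs that bind mate more often; barcode pairs of the diploids are counted by sequencing. Read counts were normalised to the haploid input and turned into Kd by a linear fit to BCL2-family pairs of known affinity, for each replicate. The assay was run in six technical replicates.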

The parent's light chain CDRs are KSSQSVLYESRNKNSVA, WASTRES, QQYHRLPLS; each variant's own CDRs replace them letter for letter. Variants here have more than six changes. The Kd shown is the geometric mean over detected replicates; a lower Kd is a better binder. "nd" means that the variant was in the library but no mating with the target was seen in any replicate; the authors take this as a sign of poor binding, and no number exists. Values of this round are not directly comparable with the first-round values of the same sequences. Background: pairings of all light chain designs with three empty control strains gave a value in 4% of cases (median 430 nM, 5th percentile 38 nM). Values in that range, when seen in few replicates, are hard to tell from nonspecific mating. The control count says in how many pairings with the empty strains this scFv gave a signal. The parent sequence was in this pool as ten entries: three were never detected, three once, and four in most replicates, with averages from 2.2 nM to 240 nM. The authors averaged sequences with at least three values out of six and counted those with two or fewer as poor binders.

- TISQLMNMGQFAIQSVA / QASIRNS / QQYDRLPLM [En_Gen] -> 19 nM (6 of 6 replicates; controls 1 of 18)
- KLSISMLHESINKHSVA / EVRTREE / QQYDRLPLS [En_HC] -> 3.6 nM (6 of 6 replicates; controls 3 of 18)
- QIYQAMHTLSQQKDNVA / DVNERGT / QQYFRLPLS [En_Gen] -> 2.3 nM (6 of 6 replicates; controls 2 of 18)
- ALASTGHQVDSQMQNIA / DGMLRES / QQYNRLPLT [En_Gibbs] -> 14 nM (6 of 6 replicates; controls 0 of 18)
- QISVFELQGTGWAQNIA / QADHRTE / QQFSRLPLV [En_Gibbs] -> 63 nM (2 of 6 replicates; controls 0 of 18)
- SLYEAMQTGGLHTSNIA / DANQQMR / QHYNRLPLA [En_Gibbs] -> 4.7 nM (6 of 6 replicates; controls 1 of 18)
- KLGGATRFETSNKASIA / NNSTREE / QQYHRLPLS [En_HC] -> 3.1 nM (6 of 6 replicates; controls 0 of 18)
- KFNMEVQGQNNNKYNIA / AAHQLEY / QTYHRLPLV [En_Gibbs] -> 6.9 nM (6 of 6 replicates; controls 0 of 18)
- KFSYVYEMVNTDKESIA / DAHTVQM / QQYSRLPLA [En_Gibbs] -> 43 nM (6 of 6 replicates; controls 0 of 18)
- MISQSFLIGMKAKNSVA / QTSTRES / QQYDRLPLM [En_HC] -> 690 pM (6 of 6 replicates; controls 0 of 18)
- KVSPEVEYESRLKNSVA / NASTRLE / QQYHRLPLS [GP_Gibbs] -> 39 nM (6 of 6 replicates; controls 1 of 18)
- KMEQSDWLESRNVNSVA / QASTRES / QQYHRLPLS [GP_Gibbs] -> 740 pM (6 of 6 replicates; controls 0 of 18)
- KLSMGWEMNTRQNHNMA / EASLKDS / QQYNRLPLF [En_Gibbs] -> 1.7 nM (6 of 6 replicates; controls 0 of 18)
- KIQLNVVDGWAMHNNIA / GDAWRAR / QQYYHLPLM [En_Gibbs] -> 15 nM (6 of 6 replicates; controls 2 of 18)
- KLSQQDWYEERNCNSVA / QASTREQ / QQYHRLPLS [GP_Gibbs] -> 770 pM (6 of 6 replicates; controls 0 of 18)
- KSSQSFLKESRNKNRVA / GASTRMS / QQCHRLTLS [Rand] -> nd (0 of 6 replicates; controls 0 of 18)
- KVSQSELYESRQFNSVA / HASQREL / QQYHRLPLS [GP_Gibbs] -> 2.2 nM (6 of 6 replicates; controls 1 of 18)
- HISQSFMQESVWRNNVA / HQSTREQ / QQYDRLPFS [En_HC] -> 1.9 nM (6 of 6 replicates; controls 0 of 18)
- QLEVFPLQGMSTTQSIA / DASHRTE / QQYSRLPLV [En_Gibbs] -> 650 pM (6 of 6 replicates; controls 1 of 18)
- KSEQGVDDLERNDNSVA / WASTRES / QQYHRLPLS [GP_Gibbs] -> 68 nM (6 of 6 replicates; controls 2 of 18)
- TISQVMNTLTRNGNNVA / DLQEREK / QQYFRLPLS [En_Gen] -> 1.2 nM (6 of 6 replicates; controls 2 of 18)
- KQQGGQDYESRNDNSVA / DASLRES / QQYHRLPLS [GP_Gibbs] -> 14 nM (6 of 6 replicates; controls 0 of 18)
- KQQQGQDYESRNKNSVA / DASLRES / QQYHRLPLS [GP_Gibbs] -> 730 pM (6 of 6 replicates; controls 1 of 18)
- KFHMGWEMGSRKNDNIA / EANLRFS / QQYNRLPLF [En_Gibbs] -> 1.4 nM (6 of 6 replicates; controls 0 of 18)
- KISQMVRVGSTHGNSIA / EEATRAD / QQYHRLPLS [En_Gen] -> 3.9 nM (6 of 6 replicates; controls 4 of 18)
- KLSQSVEVLDRNKNSVA / EASTREM / QQYHRLPLS [GP_Gibbs] -> 1.1 nM (6 of 6 replicates; controls 1 of 18)
- KVSSFMRGLMMRTDSIA / DNETRNS / QQYDRLPLS [En_Gen] -> 52 nM (1 of 6 replicates; controls 0 of 18)
- MMGMTKTMQSNEIGNVA / DMNERFA / QQYFQLPLS [En_Gibbs] -> 2.4 nM (6 of 6 replicates; controls 2 of 18)
- NIYQAMHTLSQNRNNVA / DVNERGS / QQYFRLPLS [En_Gen] -> 250 pM (6 of 6 replicates; controls 0 of 18)
- IVSQMMLWGMHLKNSIA / EAQTRVN / QQYDRLPLF [En_Gen] -> nd (0 of 6 replicates; controls 0 of 18)
- MLLQATMYGERARNSVA / HASTRED / QQYHRLPLI [En_HC] -> 7.1 nM (6 of 6 replicates; controls 1 of 18)
- TMPQVWMYETKNKNNVA / EMSTRED / QQYFRLPLS [En_HC] -> 6.2 nM (6 of 6 replicates; controls 1 of 18)
- MMSMGYLGGMRAKNNVA / QESTREP / QQYHRLPLI [En_HC] -> 15 nM (6 of 6 replicates; controls 2 of 18)
- KISMLKNQTFEESNNVA / EMVTREK / QQYNRLPLS [En_Gen] -> 56 nM (5 of 6 replicates; controls 1 of 18)
- KLEQEYLYGKRNKNSVA / QASLRES / QQYHRLPLS [GP_Gibbs] -> 3.5 nM (6 of 6 replicates; controls 0 of 18)
- KLSVSYLFESQEKNSIA / ENSTREK / QHYHRLPLS [En_HC] -> 540 nM (1 of 6 replicates; controls 0 of 18)
- KLQWSVLDEERNDNSVA / WASHRES / QQYHRLPLS [GP_Gibbs] -> 95 nM (6 of 6 replicates; controls 0 of 18)
- KISQMVRVGSTVGNSIA / EEVTRAK / QQYHRLPLF [En_Gen] -> 14 nM (6 of 6 replicates; controls 1 of 18)
- TISQMTSWMSNLKNNVA / EVSTREN / QQYDRLPLS [En_Gen] -> 11 nM (6 of 6 replicates; controls 1 of 18)
- ALSQSMDMTSRNKNSVA / DLSTRLN / QQYHRLPLS [En_HC] -> 5.1 nM (3 of 6 replicates; controls 0 of 18)
- IVSQLMLWGLHYKNSIA / EAQTRLN / QQYDRLPLF [En_Gen] -> nd (0 of 6 replicates; controls 0 of 18)
- KISYMGEHFATNHSAIA / QASTREQ / QQYHRLPIS [En_HC] -> 10 nM (6 of 6 replicates; controls 1 of 18)
- KLTQVTGHLSVEKNNVA / EMETREN / QQYDRLPLS [En_Gen] -> 10 nM (5 of 6 replicates; controls 0 of 18)
- LLSQSSGYEQRNKNSVA / DASTRLS / QQYHRLPLS [GP_Gibbs] -> 660 pM (6 of 6 replicates; controls 0 of 18)
- QFHQGMIGDQRNMHSIA / NAQAAVP / QYYFRLPLT [En_Gibbs] -> 27 nM (3 of 6 replicates; controls 1 of 18)
- KVSPSQLYWSRNKNAVA / QANTRET / QQYHRLPLS [GP_Gibbs] -> 2.1 nM (6 of 6 replicates; controls 1 of 18)
- NIVGRVNDKGTTTANIA / DAELRAG / QQYSRLPLS [En_Gibbs] -> 59 nM (5 of 6 replicates; controls 0 of 18)
- KVSEFMRGMMRQKDSIA / DNETRES / QQYDRLPLS [En_Gen] -> 60 nM (6 of 6 replicates; controls 1 of 18)
- ILSDHAVNQYDEADSIA / DKTENAV / QQYARLPLS [En_Gibbs] -> 13 nM (6 of 6 replicates; controls 0 of 18)
- MLSDLNKMGVRNTQSVA / DNSTRGE / QQYDRLPLS [En_HC] -> 12 nM (6 of 6 replicates; controls 0 of 18)
- HMSAVTMLGMRNRNSVA / QMTTREN / QQYDRLPLA [En_Gen] -> 11 nM (6 of 6 replicates; controls 0 of 18)

From the list, the first 3 with no signal in any replicate:

{"CDR-L1": "KSSQSFLKESRNKNRVA", "CDR-L2": "GASTRMS", "CDR-L3": "QQCHRLTLS", "group": "Rand", "Kd (apparent)": "nd", "detected": "0 of 6", "signal with controls": "0 of 18"}
{"CDR-L1": "IVSQMMLWGMHLKNSIA", "CDR-L2": "EAQTRVN", "CDR-L3": "QQYDRLPLF", "group": "En_Gen", "Kd (apparent)": "nd", "detected": "0 of 6", "signal with controls": "0 of 18"}
{"CDR-L1": "IVSQLMLWGLHYKNSIA", "CDR-L2": "EAQTRLN", "CDR-L3": "QQYDRLPLF", "group": "En_Gen", "Kd (apparent)": "nd", "detected": "0 of 6", "signal with controls": "0 of 18"}